Measurements as given in patent US8207216B2, “Benzofuran-3-yl(indol-3-yl) maleimides as potent GSK3 inhibitors” (The Board of Trustees of the University of Illinois, priority 2006, dated 2012).

Amino acid sequences for entries named in this document (tags omitted).
UniProt Q00535, whole entry, species assumed: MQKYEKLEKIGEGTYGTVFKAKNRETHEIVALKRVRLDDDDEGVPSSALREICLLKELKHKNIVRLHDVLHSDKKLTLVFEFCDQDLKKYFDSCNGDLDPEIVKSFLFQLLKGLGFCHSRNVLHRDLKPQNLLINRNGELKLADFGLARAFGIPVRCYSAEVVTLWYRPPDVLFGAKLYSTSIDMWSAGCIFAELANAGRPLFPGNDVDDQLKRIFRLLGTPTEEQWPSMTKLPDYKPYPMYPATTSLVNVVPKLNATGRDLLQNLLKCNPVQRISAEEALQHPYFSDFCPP
UniProt Q00526, whole entry, species assumed: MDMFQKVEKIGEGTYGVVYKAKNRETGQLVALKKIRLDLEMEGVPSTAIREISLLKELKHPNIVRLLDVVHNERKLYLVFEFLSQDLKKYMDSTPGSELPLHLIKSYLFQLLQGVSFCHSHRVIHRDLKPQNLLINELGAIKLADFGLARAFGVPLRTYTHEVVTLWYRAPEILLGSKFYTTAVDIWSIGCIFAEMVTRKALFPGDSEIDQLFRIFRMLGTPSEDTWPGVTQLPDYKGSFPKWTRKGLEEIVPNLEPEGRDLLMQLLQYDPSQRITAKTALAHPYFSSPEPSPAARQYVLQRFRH

Columns and labels:
CDK-2/cyclinE = CDK-2/cyclinE (Homo sapiens, UniProt P24941); test: CDK-2/CyclinE inhibition (Reaction Biology); conditions: selectivity ratio
CDK-5/P25 = CDK-5/P25 (Homo sapiens, UniProt Q00535); test: CDK panel (Reaction Biology); format: biochemical
CDK-5/P35 = CDK-5/P35 (Homo sapiens, UniProt Q00535); test: CDK panel (Reaction Biology); format: biochemical
CDK-3/cyclinE = CDK-3/cyclinE (Homo sapiens, UniProt Q00526); conditions: 3rd data row; CDK-3/cyclinE by row order of Table 6A
CDK-2/cyclinA = CDK-2/cyclinA (Homo sapiens, UniProt P24941); test: CDK panel (Reaction Biology); format: biochemical; conditions: 2nd data row; CDK-2/cyclinA by row order of Table 6A
BXPC-3 = test: Antiproliferation MTS assay, pancreatic cancer cells; format: cell-based; conditions: Homo sapiens
Method: (§1) The pancreatic cancer cell lines BxPc-3, HupT3, MiaPaCa-2, Panc 04.03, and SU86.86 were obtained from ATCC (Rockville, Md.) and were grown in medium (DMEM or RPMI) containing 10% fetal calf serum and L-glutamine. Pancreatic cancer cells were plated out in duplicate into 6-wells of a 96-well microtiter plate at 2.5−4×10^3 cells per well. Four-hours post plating, individual wells were treated with diluent (DMSO) or varying concentrations of commercial compounds, AR-A014418 and SB216763, or the indicated GSK inhibitors of this invention from a concentration of 1 nM to 50 microM. […] The IC50s were calculated using XLfit (IDBS Limited, Guildford, UK).

HupT3 = test: as above; format: cell-based; conditions: Homo sapiens
Method: as §1

MIAPaCa-2 = test: as above; format: cell-based; conditions: Homo sapiens
Method: as §1

[1] = tested at Reaction Biology, Inc.
[2] = BXPC-3, as reported in Gaisina et al. (2009) J. Med. Chem. 52(7), 1853-1863

In the case of `Cn1cc(C2=C(c3coc4cc(CO)ccc34)C(=O)NC2=O)c2cc(F)ccc21` [Compound 7, 3-(5-Fluoro-1-methyl-1H-indol-3-yl)-4-(6-hydroxymethyl-benzofuran-3-yl)-pyrrole-2,5-dione], the “IC50 Ratio CDK-2/cyclinE GSK-3β” value (CDK-2/cyclinE) is reported as 670.
With `Cn1cc(C2=C(c3coc4cc(CO)ccc34)C(=O)NC2=O)c2cc(F)c(Cl)cc21` [Compound 13, 3-(6-Chloro-5-fluoro-1-methyl-1H-indol-3-yl)-4-(6-hydroxymethyl-benzofuran-3-yl)-pyrrole-2,5-dione] the “IC50 Ratio (CDK/GSK-3β)” value (CDK-5/P25; 5th data row, CDK-5/P25 by row order of Table 6A) was 19800, the IC50 (CDK-5/P25; [1]) was 18.9 µM and the “IC50 Ratio (CDK/GSK-3β)” value (CDK-5/P35; 6th data row, CDK-5/P35 by row order of Table 6A) was 16900. The IC50 (CDK-5/P35; [1]) was 16.1 µM, the “IC50 Ratio (CDK/GSK-3β)” value (CDK-3/cyclinE) was 26400 and the “IC50 Ratio (CDK/GSK-3β)” value (CDK-2/cyclinA) was 11100.
Work on `Cn1cc(C2=C(c3coc4ccccc34)C(=O)NC2=O)c2cc(I)ccc21` [Compound 28, 3-Benzofuran-3-yl-4-(5-iodo-1-methyl-1H-indol-3-yl)-pyrrole-2,5-dione] yielded an IC50 (BXPC-3; [2]) of 33 ± 4 µM and an IC50 (BXPC-3; BXPC-3, 72 hrs, MTS) of 33 µM.
`Cn1cc(C2=C(c3coc4ccc(F)cc34)C(=O)NC2=O)c2cc(I)ccc21` [Compound 29, 3-(5-Fluoro-benzofuran-3-yl)-4-(5-iodo-1-methyl-1H-indol-3-yl)-pyrrole-2,5-dione] gave an IC50 (HupT3; HuP-T3, as reported in Gaisina et al. (2009) J. Med. Chem. 52(7), 1853-1863) of 42 ± 8.3 µM, an IC50 (HupT3; HuP-T3, 72 hrs, MTS) of 42 µM and an IC50 (MIAPaCa-2; MIA PaCa-2, as reported in Gaisina et al. (2009) J. Med. Chem. 52(7), 1853-1863) of 28 ± 4.1 µM. It also gave an IC50 (MIAPaCa-2; MIA PaCa-2, 72 hrs, MTS) of 28 µM, an IC50 (BXPC-3; [2]) of 42 ± 7.6 µM and an IC50 (BXPC-3; BXPC-3, 72 hrs, MTS) of 42 µM.
With `COCc1cccc2c(C3=C(c4coc5ccccc45)C(=O)NC3=O)cn(C)c12` [Compound 52, 3-Benzofuran-3-yl-4-(7-methoxymethyl-1-methyl-1H-indol-3-yl)-pyrrole-2,5-dione] the “IC50 Ratio (CDK/GSK-3β)” value (CDK-3/cyclinE) was 14700.
